Laboratory results as given in PubChem BioAssay AID493234 (Broad Institute, 2011).
The entries are a selection whose mix differs from that of the whole data set. Active and inactive are the calls of the source.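 The calls were made as follows: active = fitted curve rises to an activation of 500 at or below the top valid dose; inactive = the rest, including activity in the falling direction.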

Experiment: HRE-luciferase activation in zinc medium, dose response, mechanism study for HIF pathway activator project, cell-based, U2OS, luminescence, dry powder, set 2 (AID 493234)
Settings: at 38 µM (top of the series)
In short: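 schedule = 24 h cell growth at 37 °C, then 24 h compound exposure | system = U2OS cells with stable HRE-luciferase reporter | detection = Steady-Glo luminescence | compound dosing = 8 concentrations, 3-fold dilution steps | probe or stimulus = zinc sulfate, 50 µM final, added before compound addition | buffer or medium = phenol red-free DMEM with 10% FBS, without hygromycin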

For O=c1[nH]c2ccccc2n1C1CCN(Cc2ccc(O)c3ncccc23)CC1, the activation was inactive: -4.88%.
